The values below come from PMC8986778, “Citrullination of glucokinase is linked to autoimmune diabetes” (Nature Communications, 2022).

SMILES strings stand for the structures. pIC50: −log10 of the molar value.

This assay concerns the target T1, DR0401 protein (Homo sapiens, UniProt P01903+P01911, A100K/A169T/F76Y/I96L/K127E/L162R/M171V/N62H/P40V/Q125Y/R42H/S133A/S149N/S66Y/V115G/V209L/W38E).
T1 construct: made in house; host or cells: insect cell cultures
In words: DR0401 peptide binding competition assay. Conditions: Supplementary Table 2; competition with biotin-HA306-318 0.02 μM; read-out: IC50 (Binding of Predicted Glucokinase Peptides to DR04:01).
As usually defined, the pIC50 is the negative decadic logarithm of the IC50, by convention in mol/L. As for `CC[C@H](C)[C@H](NC(=O)[C@H](CCC(N)=O)NC(=O)[C@@H](N)CCC(=O)O)C(=O)N[C@@H](CC(C)C)C(=O)N[C@@H](C)C(=O)N[C@@H](CCC(=O)O)C(=O)N[C@@H](Cc1ccccc1)C(=O)N[C@@H](CCC(N)=O)C(=O)N[C@@H](CC(C)C)C(=O)N[C@@H](CCC(N)=O)C(=O)N[C@@H](CCC(=O)O)C(=O)N[C@@H](CCC(=O)O)C(=O)N[C@@H](CC(=O)O)C(=O)N[C@@H](CC(C)C)C(=O)N[C@@H](CCCCN)C(=O)O` [GK 17-31], the pIC50 was below 4.30.

With `CC(C)C[C@H](NC(=O)[C@H](CC(=O)O)NC(=O)[C@H](CC(C)C)NC(=O)[C@H](CO)NC(=O)[C@H](CC(C)C)NC(=O)[C@H](Cc1ccccc1)NC(=O)[C@H](CC(=O)O)NC(=O)CNC(=O)[C@@H](N)C(C)C)C(=O)NCC(=O)NCC(=O)N[C@H](C(=O)N[C@@H](CC(N)=O)C(=O)N[C@@H](Cc1ccccc1)C(=O)N[C@@H](CCCNC(=N)N)C(=O)O)[C@@H](C)O` [GK 71-85], the pIC50 is below 4.30.

For the compound `CC[C@H](C)[C@H](NC(=O)[C@H](CC(=O)O)NC(=O)[C@H](CCC(=O)O)NC(=O)[C@H](Cc1c[nH]cn1)NC(=O)[C@H](CCCNC(=N)N)NC(=O)[C@@H](NC(=O)[C@@H]1CCCN1C(=O)[C@H](Cc1ccccc1)NC(=O)[C@H](CO)NC(=O)[C@H](Cc1ccccc1)NC(=O)[C@@H](NC(=O)[C@H](Cc1ccccc1)NC(=O)CNC(=O)[C@H](CC(C)C)NC(=O)[C@@H]1CCCN1)[C@@H](C)O)C(C)C)C(=O)O` [GK 145-159], the pIC50 was below 4.30.

As to `CC(C)[C@H](NC(=O)[C@@H](NC(=O)[C@H](CC(N)=O)NC(=O)[C@H](CC(N)=O)NC(=O)CNC(=O)[C@H](CCC(=O)O)NC(=O)[C@H](C)NC(=O)CNC(=O)[C@H](CO)NC(=O)[C@H](C)NC(=O)[C@H](CCCCN)NC(=O)[C@H](Cc1ccccc1)NC(=O)CNC(=O)[C@H](CCCCN)NC(=O)[C@@H](N)[C@@H](C)O)C(C)C)C(=O)O` [GK 168-182], the pIC50 is below 4.30.

Turning to `CSCC[C@H](NC(=O)[C@H](CCCNC(=N)N)NC(=O)CNC(=O)[C@H](CCC(=O)O)NC(=O)[C@H](CC(=O)O)NC(=O)CNC(=O)[C@H](CCC(=O)O)NC(=O)[C@@H](NC(=O)[C@H](CC(C)C)NC(=O)[C@H](CCC(=O)O)NC(=O)[C@@H](NC(=O)[C@@H](N)CC(N)=O)C(C)C)C(C)C)C(=O)N[C@@H](CS)C(=O)N[C@H](C(=O)N[C@@H](CC(N)=O)C(=O)O)C(C)C` [GK 240-254], the pIC50 is below 4.30.

Take `CSCC[C@H](NC(=O)[C@H](CCCNC(=N)N)NC(=O)CNC(=O)[C@@H](N)CCC(=O)O)C(=O)N[C@@H](CS)C(=O)N[C@H](C(=O)N[C@@H](CC(N)=O)C(=O)N[C@H](C(=O)N[C@@H](CCC(=O)O)C(=O)N[C@@H](Cc1c[nH]c2ccccc12)C(=O)NCC(=O)N[C@@H](C)C(=O)N[C@@H](Cc1ccccc1)C(=O)NCC(=O)N[C@@H](CC(=O)O)C(=O)O)[C@@H](C)O)C(C)C` [GK 248-262]: the negative-log IC50 (pIC50) is below 4.30.

Take `CSCC[C@H](NC(=O)[C@@H](N)CCCNC(=N)N)C(=O)N[C@@H](CS)C(=O)N[C@H](C(=O)N[C@@H](CC(N)=O)C(=O)N[C@H](C(=O)N[C@@H](CCC(=O)O)C(=O)N[C@@H](Cc1c[nH]c2ccccc12)C(=O)NCC(=O)N[C@@H](C)C(=O)N[C@@H](Cc1ccccc1)C(=O)NCC(=O)N[C@@H](CC(=O)O)C(=O)N[C@@H](CO)C(=O)NCC(=O)O)[C@@H](C)O)C(C)C` [GK 250-264]: the negative-log IC50 (pIC50) was below 4.30.

On to `CC(C)C[C@H](NC(=O)[C@H](CCC(=O)O)NC(=O)CNC(=O)[C@H](CO)NC(=O)[C@H](CC(=O)O)NC(=O)CNC(=O)[C@H](Cc1ccccc1)NC(=O)[C@H](C)NC(=O)CNC(=O)[C@H](Cc1c[nH]c2ccccc12)NC(=O)[C@H](CCC(=O)O)NC(=O)[C@@H](NC(=O)[C@@H](N)CC(N)=O)[C@@H](C)O)C(=O)N[C@@H](CC(=O)O)C(=O)N[C@@H](CCC(=O)O)C(=O)O` [GK 254-268], for which the pIC50 is below 4.30.

As to `CC(C)C[C@H](NC(=O)[C@H](CC(C)C)NC(=O)[C@H](Cc1ccccc1)NC(=O)[C@H](CCC(=O)O)NC(=O)[C@H](CC(=O)O)NC(=O)[C@H](CC(C)C)NC(=O)[C@H](CCC(=O)O)NC(=O)CNC(=O)[C@H](CO)NC(=O)[C@H](CC(=O)O)NC(=O)CNC(=O)[C@H](Cc1ccccc1)NC(=O)[C@H](C)NC(=O)CNC(=O)[C@@H](N)Cc1c[nH]c2ccccc12)C(=O)O` [GK 257-271], the pIC50 was below 4.30.

With `CC(C)C[C@H](NC(=O)[C@H](CCC(N)=O)NC(=O)[C@H](CCC(N)=O)NC(=O)CNC(=O)[C@@H]1CCCN1C(=O)[C@H](CC(N)=O)NC(=O)[C@H](C)NC(=O)[C@H](CO)NC(=O)[C@H](CO)NC(=O)[C@H](CCC(=O)O)NC(=O)[C@H](CC(=O)O)NC(=O)[C@@H](NC(=O)[C@H](CC(C)C)NC(=O)[C@H](CCCNC(=N)N)NC(=O)[C@@H](N)CC(=O)O)C(C)C)C(=O)O` [GK 274-288], the pIC50 is below 4.30.

For the compound `CC[C@H](C)[C@H](NC(=O)[C@H](CC(C)C)NC(=O)[C@H](CCCCN)NC(=O)[C@H](CCC(=O)O)NC(=O)[C@H](Cc1ccc(O)cc1)NC(=O)[C@H](CC(C)C)NC(=O)[C@H](CCC(N)=O)NC(=O)[C@@H](N)CCC(N)=O)C(=O)NCC(=O)NCC(=O)N[C@@H](CCCCN)C(=O)N[C@@H](Cc1ccc(O)cc1)C(=O)N[C@@H](CCSC)C(=O)NCC(=O)N[C@@H](CCC(=O)O)C(=O)O` [GK 286-300], the pIC50 was below 4.30.

As to `CC(C)C[C@H](NC(=O)[C@H](CC(C)C)NC(=O)[C@H](CC(N)=O)NC(=O)[C@H](CCC(=O)O)NC(=O)[C@H](CC(=O)O)NC(=O)[C@@H](NC(=O)[C@H](CC(C)C)NC(=O)[C@H](CCCNC(=N)N)NC(=O)[C@H](CC(C)C)NC(=O)[C@@H](N)CC(C)C)C(C)C)C(=O)N[C@@H](Cc1ccccc1)C(=O)N[C@@H](Cc1c[nH]cn1)C(=O)NCC(=O)N[C@@H](CCC(=O)O)C(=O)N[C@@H](C)C(=O)O` [GK 306-320], the pIC50 is below 4.30.
